# From PubChem BioAssay AID463104 (Sanford-Burnham Center for Chemical Genomics, 2010)
# The list shows a part of the results, in another mix than the full data. The source made the active and inactive calls.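 How the source made its calls: active means versus positive control, 20 µM dose yields 30% or more activation; inactive means the rest.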
# Assay: activators of adaptive XBP1 UPR arm, primary screen, cell-based, CHO-XBP1 luciferase reporter, luminescence, uHTS (AID 463104);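 further: 100% = tunicamycin at 10 µg/mL and 0% = DMSO only wells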
# Conditions: IRE1-XBP1 UPR activation, at 20 µM, hits give high values, percent of tunicamycin response, DMSO as zero
# In short: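 Material – CHO cell line with stable XBP1 luciferase reporter · Buffer or medium – F12 plus 10% FBS · Compound – single point, 20 µM final compound, 1% DMSO · Schedule – 16-18 h cell attachment at 37 °C, then 6 h compound exposure · Signal – Steady-Glo luminescence read · Benchmarks – high control tunicamycin 10 µg/mL final, low control DMSO vehicle only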
row,Structure (SMILES),activation
1,CCC(=O)N(c1ccccc1)C1(COC)CCN(CCn2nnn(CC)c2=O)CC1,inactive: -0.64%
2,CCC(=O)N(c1ccccc1)C1(COC)CCN(CCc2cccs2)CC1,inactive: 0.06%
